{
  "source": "paper PMC7226989",
  "about": "“Establishment of an in Vitro Human Blood-Brain Barrier Model Derived from Induced Pluripotent Stem Cells and Comparison to a Porcine Cell-Based System” (Cells, 2020)",
  "key": {"[1]": {"tested_on": "hiPSC-derived BMECs (Cl1)"}},
  "data": [
    {"substance": "rhodamine-123", "values": [
      {"measurement": "Permeability coefficient in the human model", "setting": "hiPSC-derived BMECs", "result": 0.6, "unit": "×10⁻⁶ cm/s"},
      {"measurement": "Permeability human BBB_Cl1", "setting": "[1]", "result": "0.61 ± 0.01 x10^-6 cm/s"}
    ]}
  ]
}
